# Measured affinities in a library of Ab-14 light chain variants

Target peptide (SARS-CoV-2 spike, HR2 region): PDVDLGDISGINAS

Parent: Ab-14, a human scFv built as VH, a 15-residue (Gly4Ser)3 linker, VL. Only the CDRs of the light chain vary.
VH: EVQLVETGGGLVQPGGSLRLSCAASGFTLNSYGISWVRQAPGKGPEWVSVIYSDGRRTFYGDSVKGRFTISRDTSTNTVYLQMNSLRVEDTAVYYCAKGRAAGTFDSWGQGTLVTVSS
VL: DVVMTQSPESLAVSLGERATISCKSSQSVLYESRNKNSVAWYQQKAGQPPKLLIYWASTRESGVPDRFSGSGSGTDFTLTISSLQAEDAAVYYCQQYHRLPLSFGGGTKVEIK

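Phage display of a naive human antibody library on the peptide gave the parent. The variants were designed computationally from a first round of random CDR variants and then made and measured. Several design methods are mixed in this list. AlphaSeq pools MATa yeast showing the antibodies with MATalpha yeast showing the peptide. Mating (16 h, 30 °C) was followed by selection of diploids and sequencing of their barcodes. Scores were corrected for input abundance and mapped to Kd with protein pairs of known affinity run in the same pool. The assay was run in six technical replicates.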

The parent's light chain CDRs are KSSQSVLYESRNKNSVA, WASTRES, QQYHRLPLS; each variant's own CDRs replace them letter for letter.
Variants here have more than six changes.
The Kd shown is the geometric mean over detected replicates; a lower Kd is a better binder.
"no signal" marks a missing value. The strain was present, yet no cells mated with the target were sequenced in any replicate, which points to weak or no binding.
Three control strains display no target. For all light chain designs, 4% of the pairings with them gave a signal, with a median of 430 nM and one signal in twenty below 38 nM, so weak values seen in few replicates may be background.
The authors' rule: three or more of the six replicates give a measured affinity, fewer mean a poor binder.
The range of this assay differs from that of the first round, and the authors advise against merging the two.
Of ten entries with the parent sequence, four were seen in most replicates (averages 2.2 nM to 240 nM), three in one and three in none, so single entries are noisy.

Variant QIFFNDFQYRIESQNIA / QGSMREV / QQYARLPLV gave 7.7 nM (6 of 6 replicates). For KISMLYNYEQTNKNSIA / EMTTRES / QHYHRLPLS, the assay gave 45 nM (6 of 6 replicates). For IISGSMLMESRNKNSVA / NAQTREY / QHYDRLPLS, the assay gave 4.2 nM (1 of 6 replicates). Variant KLQQSELYEERNSNSVA / HASLRES / QQYHRLPLS gave 720 pM (6 of 6 replicates). Variant QVTIISDPYGRNRNNIA / QTSERAH / QQYQMLPLA gave 1.8 nM (6 of 6 replicates). Variant FFSLIQDSYGEANNSIA / ERNTKAP / QQYGRLPLV gave 150 nM (5 of 6 replicates).

Variant QLAIDRLQEYKMGAAIA / GKTTRED / QQYARLPLS gave 950 pM (6 of 6 replicates). Variant HIGLSAMLESTVRNSVA / NNSTRES / QQYDRLPLS showed 700 nM (6 of 6 replicates). Variant KLMGSMLYEQRMTNSVA / QASVRMS / QQYHRLPLS showed 2.4 nM (6 of 6 replicates). Variant GMSDSMTETIADANHIA / DREARDV / QQYSRLPLI showed 9.0 nM (6 of 6 replicates). For KLSQSELYESRQANNVA / NASQRES / QQYHRLPLS, the assay gave 760 pM (6 of 6 replicates). For TISNVMNTLTRHGNNVA / DLEERED / QQYFRLPLS, the assay gave 4.7 nM (6 of 6 replicates).

Variant KVSQGGLYEQRQKNSVA / NASQRES / QQYHRLPLS showed 4.9 nM (6 of 6 replicates). Variant TLGLNTMVESIKKNNVA / EMSTRMN / QQYVRLPLA gave no signal (0 of 6 replicates). With TISQVMNTLERHGNNVA / DLENRED / QQYFRLPLS the result was 7.9 nM (3 of 6 replicates). With TLGNQPTEMRDNKHAVA / DDEQRDR / QQYMRLPLS the result was 2.3 nM (6 of 6 replicates). With KLVGSWQYESRNKNSVA / HASQRCS / QQYHRLPLS the result was 30 nM (6 of 6 replicates). Variant KISGYLQKESKNKHSVA / EMVNRES / QQYDRLPLS showed 3.6 nM (6 of 6 replicates).

Variant KLQQSVGYESRNKNAVA / EGSQRES / QQYHRLPLS showed 410 pM (6 of 6 replicates). For IVSQLMIWGMHVKNSIA / EAEQRLN / QQYDRLPLF, the assay gave 240 pM (1 of 6 replicates). Variant ILSQSVLMGMHTHNSVA / QATMRFN / QQYHRLPFM gave 22 nM (6 of 6 replicates). Variant KWSWSVDLESRNDNSVA / DASCRED / QQYHRLPLS gave 21 nM (6 of 6 replicates). For QIMHFGLEANLNSKNVA / AKNLRVD / QQYNRLPLS, the assay gave 750 pM (6 of 6 replicates). For KLMVFPTNAGMTQANIA / DASHSLD / QQYERLPLM, the assay gave 3.5 nM (6 of 6 replicates).

With HISQSVGMTSFNKNSVA / ENSTRES / QQYDRLPLS the result was 300 nM (5 of 6 replicates). With KLLQNVMTEGRLRNNVA / HMTMRED / QQYWRLPLS the result was 260 nM (6 of 6 replicates). Variant MISQSFLIGSRAKNSVA / QTSTRES / QQYDRLPLS gave 3.0 nM (6 of 6 replicates). Variant KISMLINQTFEESNNVA / EMATREK / QQYNRLPLS gave 830 nM (1 of 6 replicates). With NMKGGLNFEDINHQAIA / SVDEREK / QQYHRLPLQ the result was 4.7 nM (6 of 6 replicates). Variant IVSQLMLWGYHAKNSIA / EAQMRMN / QQYDRLPLF showed 240 nM (1 of 6 replicates).

Variant SLRHYFLGENGMRGSVA / NATIRDQ / QQYFRLPLF showed 3.0 nM (6 of 6 replicates). Variant SVTIEMDQQQEQYNSVA / GEQKTVD / QQYGRLPLS gave no signal (0 of 6 replicates). With MISQLYNMGTFAINSVA / QAELRND / QQYDRLPLT the result was no signal (0 of 6 replicates). Variant MIEEGQAGENKNSSNIA / SQDQKTD / QQYQRLPLI gave 5.5 nM (6 of 6 replicates). With HVAHASLESNATMNSVA / NEACLAI / QQYHRLPLA the result was 28 nM (3 of 6 replicates). With KIELDLTRYNNSYSAIA / HETQKAQ / QQYSRLPLV the result was 53 nM (6 of 6 replicates).

Variant IVSQLMLWGMHAKNSIA / EAEMRLN / QQYERLPLF gave no signal (0 of 6 replicates). For KFLSLSLHQTGNLNSVA / DAEERQT / QQYMRLPLM, the assay gave 2.6 nM (6 of 6 replicates). For MLSQSVGGESRNKNSVA / EAQTREQ / QQYHRLPLS, the assay gave 650 pM (6 of 6 replicates). For KLSGEMEYESRNKNSVA / HASERES / QDYHRLPLQ, the assay gave 440 pM (6 of 6 replicates).

The first 4 entries again:

CDR-L1	CDR-L2	CDR-L3	apparent Kd	replicates with signal
QIFFNDFQYRIESQNIA	QGSMREV	QQYARLPLV	7.7 nM	6 of 6
KISMLYNYEQTNKNSIA	EMTTRES	QHYHRLPLS	45 nM	6 of 6
IISGSMLMESRNKNSVA	NAQTREY	QHYDRLPLS	4.2 nM	1 of 6
KLQQSELYEERNSNSVA	HASLRES	QQYHRLPLS	720 pM	6 of 6

Values reported by Li et al. 2023, doi:10.1038/s41467-023-39022-2 (FLAb copy).